Laboratory results as given in US9150840B2, “Isolated bacterial strain of Achromobacter sp. MTCC 5605 and a highly enantioselective epoxide hydrolase isolated therefrom” (COUNCIL OF SCIENTIFIC & INDUSTRIAL RESEARCH, priority 2011, dated 2015).

System: epoxide hydrolase from Achromobacter sp. MTCC 5605
Experiment: Effect of metal salts on styrene oxide hydrolysis by whole cells
Details: 5 mM metal salt, standard assay conditions

Substance: Al2(SO4)3
- Effect of metal salt on enzyme activity / enantioselectivity: increased

Substance: BaCl2
- Effect of metal salt on enzyme activity / enantioselectivity: no enantioselectivity

Substance: MnSO4
- Effect of metal salt on enzyme activity / enantioselectivity: no enantioselectivity

Substance: CaCl2
- Effect of metal salt on enzyme activity / enantioselectivity: partially inhibited

Substance: CuCl2
- Effect of metal salt on enzyme activity / enantioselectivity: increased

Substance: FeCl3
- Effect of metal salt on enzyme activity / enantioselectivity: increased

Substance: MgSO4
- Effect of metal salt on enzyme activity / enantioselectivity: almost no effect
